The test system of this data set is GFPβ1-10 expressing H1299c#G3 cells. It counts as cell-based, human. To be noted: FACS FSC/SSC and viable cell number relative to untreated control cells. An excerpt:
Cell morphology and cell viability.

Entries after “also recorded” stand apart in the source; their conditions may differ.

With “RDHMVLHEYVNAAGIT-GGSGGC-(S-S)-CGG-RKKRRQRRR-(PEG)6-GFWG [GFPβ11-(S-S)-TAT-P6-GFWG]”, the “cytotoxicity / morphological changes” value is listed as “no signs of cytotoxicity”.

Take “RDHMVLHEYVNAAGIT-GGSGGC-(S-S)-CGG-RKKRRQRRR-(PEG)6-GWWG [GFPβ11-(S-S)-TAT-P6-GWWG]”: the “cytotoxicity / morphological changes” value is listed as “completely removed cellular toxicity; also recorded: absence of any detectable cytotoxicity”. Regarding “RDHMVLHEYVNAAGIT-GGSGGC-(S-S)-CGG-RKKRRQRRR-(PEG)6-GWWWG [GFPβ11-(S-S)-TAT-P6-GWWWG]”, the “cytotoxicity / morphological changes” value is listed as “dramatic increase in cytotoxicity that hampered uptake”. The entry for “RDHMVLHEYVNAAGIT-GGSGGC-(S-S)-CGG-RKKRRQRRR-(PEG)6-GFFFFG [GFPβ11-(S-S)-TAT-P6-FFFF]” is “adverse effects on cells, causing morphological changes and cell death”.

These data come from patent publication US20170275650A1, “ENDOSOMAL ESCAPE DOMAINS FOR DELIVERY OF MACR[…] CELLS” (priority 2014, published 2017).
